Test results: US11503826B2, “Low volatility auxin herbicide formulations” (priority 2009, dated 2022)

Assay: Aqueous solubility of dicamba acid and dicamba salts
Conditions: Table 10a; dicamba salt solutions
Description: The solution was then passed through a 0.45 micron filter and assayed by HPLC for soluble dicamba.

For NCCO [MEA], the “Comments (crystal formation)” value was “No crystals, sticky oil”.
